Data reported in patent US8168651B2, “Protein kinase modulators” (Cylene Pharmaceuticals, Inc., priority 2008, dated 2012).

Amino acid sequences for entries named in this document (tags omitted). Residues count along the entry.
UniProt P06239, 2-509 limits assumed: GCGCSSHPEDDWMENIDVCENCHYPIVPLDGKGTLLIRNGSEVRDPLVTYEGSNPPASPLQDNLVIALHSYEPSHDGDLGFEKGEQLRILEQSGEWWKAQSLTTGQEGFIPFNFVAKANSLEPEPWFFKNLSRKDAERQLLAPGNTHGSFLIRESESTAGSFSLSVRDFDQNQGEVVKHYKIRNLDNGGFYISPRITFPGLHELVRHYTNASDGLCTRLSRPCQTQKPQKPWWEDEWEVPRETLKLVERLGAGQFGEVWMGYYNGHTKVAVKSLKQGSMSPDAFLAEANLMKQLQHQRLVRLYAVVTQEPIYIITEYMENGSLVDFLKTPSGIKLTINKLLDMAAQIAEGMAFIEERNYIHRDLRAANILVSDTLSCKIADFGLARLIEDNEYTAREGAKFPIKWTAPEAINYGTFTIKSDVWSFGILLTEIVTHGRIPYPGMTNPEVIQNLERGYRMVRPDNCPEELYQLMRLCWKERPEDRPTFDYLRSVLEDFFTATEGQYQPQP
UniProt P30530, 26-894 limits assumed: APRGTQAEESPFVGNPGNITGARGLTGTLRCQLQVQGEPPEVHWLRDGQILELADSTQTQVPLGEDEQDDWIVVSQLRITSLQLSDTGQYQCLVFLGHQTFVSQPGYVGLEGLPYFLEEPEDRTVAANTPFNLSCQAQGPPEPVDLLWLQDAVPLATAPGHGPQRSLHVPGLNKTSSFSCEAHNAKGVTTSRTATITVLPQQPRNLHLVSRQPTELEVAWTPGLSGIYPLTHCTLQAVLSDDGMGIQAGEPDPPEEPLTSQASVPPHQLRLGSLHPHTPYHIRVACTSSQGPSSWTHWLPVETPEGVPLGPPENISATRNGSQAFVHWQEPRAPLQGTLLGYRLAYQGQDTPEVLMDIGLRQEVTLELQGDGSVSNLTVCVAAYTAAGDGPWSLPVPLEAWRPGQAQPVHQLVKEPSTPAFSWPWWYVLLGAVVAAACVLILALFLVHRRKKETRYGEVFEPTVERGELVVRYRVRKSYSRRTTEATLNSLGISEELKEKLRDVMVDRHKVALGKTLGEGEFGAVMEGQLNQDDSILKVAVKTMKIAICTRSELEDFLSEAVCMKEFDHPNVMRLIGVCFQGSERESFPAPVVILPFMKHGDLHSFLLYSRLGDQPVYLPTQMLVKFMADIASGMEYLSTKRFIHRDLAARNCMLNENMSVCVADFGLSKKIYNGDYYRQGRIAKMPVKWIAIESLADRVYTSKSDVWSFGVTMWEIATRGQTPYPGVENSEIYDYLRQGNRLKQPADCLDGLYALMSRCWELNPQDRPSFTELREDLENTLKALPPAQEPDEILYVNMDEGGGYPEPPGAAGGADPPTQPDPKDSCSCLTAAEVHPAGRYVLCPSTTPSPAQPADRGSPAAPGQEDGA
UniProt P68400, whole entry: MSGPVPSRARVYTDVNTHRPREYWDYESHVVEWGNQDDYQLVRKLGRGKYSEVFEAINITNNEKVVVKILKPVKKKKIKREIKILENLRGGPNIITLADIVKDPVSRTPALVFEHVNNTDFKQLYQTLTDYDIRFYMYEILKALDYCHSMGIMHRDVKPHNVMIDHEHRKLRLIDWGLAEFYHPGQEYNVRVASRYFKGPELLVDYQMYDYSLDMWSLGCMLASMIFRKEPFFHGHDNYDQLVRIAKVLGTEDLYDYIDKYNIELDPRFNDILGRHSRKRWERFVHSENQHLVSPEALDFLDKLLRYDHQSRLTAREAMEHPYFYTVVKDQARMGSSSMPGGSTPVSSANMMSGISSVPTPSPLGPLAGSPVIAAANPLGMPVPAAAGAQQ

Tests used:
[1] = molecular target: each individual kinase of the panel (Homo sapiens, UniProt O75914); assay: Standardized radiometric kinase assays, percentage of activity at 0.5 μM;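 note: Read-out is ³³P-labelled substrate protein phosphorylated by each kinase, captured on filters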
[2] = molecular target: each individual kinase of the panel (Homo sapiens, UniProt O94804); assay: as above
[3] = molecular target: each individual kinase of the panel (Homo sapiens, UniProt P00533, L858R); assay: as above
[4] = molecular target: each individual kinase of the panel (Homo sapiens, UniProt P00533, L858R/T790M); assay: as above
[5] = molecular target: each individual kinase of the panel (Homo sapiens, UniProt P00533, L861Q); assay: as above
[6] = molecular target: each individual kinase of the panel (Homo sapiens, UniProt P06239); assay: as above
[7] = molecular target: each individual kinase of the panel (Homo sapiens, UniProt P24941); assay: as above
[8] = molecular target: each individual kinase of the panel (Homo sapiens, UniProt P30530); assay: as above
[9] = molecular target: each individual kinase of the panel (Homo sapiens, UniProt P34947); assay: as above
[10] = molecular target: each individual kinase of the panel (Homo sapiens, UniProt Q13554); assay: as above
[11] = molecular target: each individual kinase of the panel (Homo sapiens, UniProt Q15349); assay: as above
[12] = molecular target: each individual kinase of the panel (Homo sapiens, UniProt Q9H2X6); assay: as above
[13] = molecular target: each individual kinase of the panel (Homo sapiens, UniProt Q9HBH9); assay: as above
[14] = molecular target: each individual kinase of the panel (Homo sapiens, UniProt Q9Y3S1); assay: as above
recombinant human CK2 = recombinant human CK2 (Homo sapiens (Human), UniProt P68400); assay: CK2 assay (cell-free, 33P-ATP filter plate)
[15] = CK2 (15 um ATP) IC50 (uM), 15 um ATP, cell-free

How did the “PAK3 percentage of activity” value [1] turn out when C#Cc1cccc(Nc2nc3cc(C(=O)O)ccc3c3cncnc23)c1 [drawing 1135] was run?
Its value is 21%.

What about the “LOK percentage of activity” value [2] of the same compound?
Its value is 16%.

What about the “EGFR(L858R) percentage of activity” value [3] of the same compound?
The value was 11%.

And the “EGFR(T790M, L858R) percentage of activity” value [4]?
Its value is −21%.

What about the “EGFR(L861Q) percentage of activity” value [5] of the same compound?
Its value is 21%.

What about the “LCK percentage of activity” value [6] of the same compound?
Its value is 37%.

And the “CDK2/cyclin A percentage of activity” value [7]?
The value was 37%.

What about the “AXL percentage of activity” value [8] of the same compound?
Its value is 16%.

And the “GRK5 percentage of activity” value [9]?
The value was 11%.

And the “CAMK2B percentage of activity” value [10]?
The value was 11%.

What about the “RPS6KA2 percentage of activity” value [11] of the same compound?
The value was 37%.

What about the “HIPK2 percentage of activity” value [12] of the same compound?
Its value is 89%.

What about the “Mnk2 percentage of activity” value [13] of the same compound?
Its value is 37%.

And the “WNK2 percentage of activity” value [14]?
The value was 11%.

For COC(=O)c1ccc2c(c1)nc(Nc1cccc(Cl)c1)c1ccncc12 [drawing 1568], which IC50 (recombinant human CK2; [15]) is on record?
Its IC50 is > 0.75 µM.

For COC(=O)c1ccc2c(c1)nc(Nc1ccccc1)c1nc(SC)ncc12 [drawing 1569], which IC50 (recombinant human CK2; [15]) is on record?
The IC50 was > 0.75 µM.

Which IC50 (recombinant human CK2; [15]) does the source give for COC(=O)c1ccc2c(c1)nc(Nc1ccccc1)c1nc(S(C)(=O)=O)ncc12 [drawing 1570] here?
The IC50 was > 0.75 µM.

Which IC50 (recombinant human CK2; CK2 (15 um ATP) IC50, 15 um ATP, cell-free assay) does the source give for CNc1ncc2c(n1)c(Nc1ccccc1)nc1cc(C(=O)OC)ccc12 [drawing 1571] here?
Its IC50 is > 0.75 µM.
